Species: Mus musculus
Assay: Tested for analgesic activity using tail pinch assay in mice
CN(C)C1(c2ccccc2Cl)CCC(=O)CC1 showed an ED50 of 35 mg/kg. With Cc1ccccc1C1(N(C)C)CCC(=O)CC1 the ED50 was 63 mg/kg. CN(C)C1(c2cccs2)CCC(=O)CC1 was tested, and the ED50 was 63 mg/kg.

Species: Mus musculus
Assay: Tested for analgesic activity using HCl writhe assay in mice in mice
CN(C)C1(c2ccccc2Cl)CCC(=O)CC1 gave an ED50 of 20 mg/kg. Compound Cc1ccccc1C1(N(C)C)CCC(=O)CC1 has an ED50 of 63 mg/kg. CN(C)C1(c2ccc(Cl)cc2Cl)CCC(=O)CC1 was tested, and the ED50 was 71 mg/kg. CN(C)C1(c2cccs2)CCC(=O)CC1 showed an ED50 of 32 mg/kg.

Species: Mus musculus
Assay: Tested for analgesic activity using tail flick assay in mice
With CN(C)C1(c2ccccc2Cl)CCC(=O)CC1 the ED50 was 22 mg/kg. Cc1ccccc1C1(N(C)C)CCC(=O)CC1 gave an ED50 of 63 mg/kg. With CN(C)C1(c2cccs2)CCC(=O)CC1 the ED50 was 63 mg/kg.
